Results on 14 compounds are retold here after patent EP4834897A1, “COMPOUNDS WITH TWO AZAHETEROCYCLES SUBSTITUTED ISOINDOLINONE SKELETON AND USES THEREOF” (dated 2026).

Amino acid sequences for entries named in this document (tags omitted).
UniProt P48729, whole entry: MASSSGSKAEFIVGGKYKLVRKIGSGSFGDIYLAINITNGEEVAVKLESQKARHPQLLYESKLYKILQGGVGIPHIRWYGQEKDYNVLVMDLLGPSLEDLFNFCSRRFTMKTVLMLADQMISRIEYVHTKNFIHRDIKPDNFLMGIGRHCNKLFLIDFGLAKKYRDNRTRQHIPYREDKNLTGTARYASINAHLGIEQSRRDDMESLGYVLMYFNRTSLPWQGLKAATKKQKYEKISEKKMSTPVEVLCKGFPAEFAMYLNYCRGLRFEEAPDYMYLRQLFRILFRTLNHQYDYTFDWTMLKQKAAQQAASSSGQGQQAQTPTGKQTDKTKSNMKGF
UniProt Q96SW2, whole entry: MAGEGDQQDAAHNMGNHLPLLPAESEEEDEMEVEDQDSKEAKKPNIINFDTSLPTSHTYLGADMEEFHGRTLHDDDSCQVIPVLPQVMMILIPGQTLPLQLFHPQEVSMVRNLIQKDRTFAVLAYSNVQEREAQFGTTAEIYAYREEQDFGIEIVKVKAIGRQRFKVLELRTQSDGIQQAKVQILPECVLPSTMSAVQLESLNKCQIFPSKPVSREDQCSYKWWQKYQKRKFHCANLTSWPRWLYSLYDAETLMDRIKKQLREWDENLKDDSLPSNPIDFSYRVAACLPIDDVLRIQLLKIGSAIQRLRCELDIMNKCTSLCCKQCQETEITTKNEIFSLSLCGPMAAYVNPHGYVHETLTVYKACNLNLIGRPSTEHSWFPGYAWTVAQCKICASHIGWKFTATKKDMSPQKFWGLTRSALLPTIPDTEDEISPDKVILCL
UniProt P15170, whole entry: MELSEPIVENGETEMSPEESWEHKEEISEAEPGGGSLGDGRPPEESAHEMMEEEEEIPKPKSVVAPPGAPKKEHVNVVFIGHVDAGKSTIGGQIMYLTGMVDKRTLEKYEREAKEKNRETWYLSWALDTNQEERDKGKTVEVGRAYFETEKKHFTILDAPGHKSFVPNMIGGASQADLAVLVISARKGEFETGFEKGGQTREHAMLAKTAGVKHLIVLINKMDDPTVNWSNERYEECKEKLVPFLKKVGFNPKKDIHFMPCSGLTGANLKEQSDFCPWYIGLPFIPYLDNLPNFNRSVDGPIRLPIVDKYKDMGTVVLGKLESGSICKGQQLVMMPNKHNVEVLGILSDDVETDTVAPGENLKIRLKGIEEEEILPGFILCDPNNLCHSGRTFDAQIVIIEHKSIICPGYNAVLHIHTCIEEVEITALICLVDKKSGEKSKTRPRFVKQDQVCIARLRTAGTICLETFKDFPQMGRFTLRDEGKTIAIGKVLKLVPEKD
UniProt Q13422, whole entry: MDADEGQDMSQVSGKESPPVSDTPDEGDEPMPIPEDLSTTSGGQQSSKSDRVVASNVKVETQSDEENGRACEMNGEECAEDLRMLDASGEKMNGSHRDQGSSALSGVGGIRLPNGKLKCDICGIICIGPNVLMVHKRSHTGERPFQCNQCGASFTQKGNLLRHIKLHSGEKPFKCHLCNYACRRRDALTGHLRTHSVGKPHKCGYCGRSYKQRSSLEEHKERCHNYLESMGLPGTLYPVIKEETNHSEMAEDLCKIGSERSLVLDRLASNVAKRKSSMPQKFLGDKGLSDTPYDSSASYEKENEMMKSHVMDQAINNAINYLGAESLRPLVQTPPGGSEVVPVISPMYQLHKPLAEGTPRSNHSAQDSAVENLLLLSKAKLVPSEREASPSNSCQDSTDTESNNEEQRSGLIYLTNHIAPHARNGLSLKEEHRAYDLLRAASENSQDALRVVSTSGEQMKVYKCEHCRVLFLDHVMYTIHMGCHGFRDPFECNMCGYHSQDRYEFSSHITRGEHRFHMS
UniProt Q9UKS7, whole entry: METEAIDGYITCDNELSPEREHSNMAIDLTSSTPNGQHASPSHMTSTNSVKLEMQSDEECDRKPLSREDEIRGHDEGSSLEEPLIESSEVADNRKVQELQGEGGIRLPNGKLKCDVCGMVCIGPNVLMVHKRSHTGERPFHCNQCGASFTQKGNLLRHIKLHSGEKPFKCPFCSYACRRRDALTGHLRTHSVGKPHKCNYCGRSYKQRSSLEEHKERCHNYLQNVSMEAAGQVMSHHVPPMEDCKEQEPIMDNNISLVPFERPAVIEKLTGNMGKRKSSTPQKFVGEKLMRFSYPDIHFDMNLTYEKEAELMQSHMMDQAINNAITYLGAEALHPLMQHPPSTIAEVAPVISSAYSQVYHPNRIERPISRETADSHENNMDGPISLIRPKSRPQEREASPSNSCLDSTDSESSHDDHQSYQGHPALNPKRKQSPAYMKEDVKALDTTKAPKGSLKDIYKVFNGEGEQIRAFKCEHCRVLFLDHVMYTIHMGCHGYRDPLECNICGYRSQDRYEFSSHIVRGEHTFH
UniProt Q9UKT9, whole entry: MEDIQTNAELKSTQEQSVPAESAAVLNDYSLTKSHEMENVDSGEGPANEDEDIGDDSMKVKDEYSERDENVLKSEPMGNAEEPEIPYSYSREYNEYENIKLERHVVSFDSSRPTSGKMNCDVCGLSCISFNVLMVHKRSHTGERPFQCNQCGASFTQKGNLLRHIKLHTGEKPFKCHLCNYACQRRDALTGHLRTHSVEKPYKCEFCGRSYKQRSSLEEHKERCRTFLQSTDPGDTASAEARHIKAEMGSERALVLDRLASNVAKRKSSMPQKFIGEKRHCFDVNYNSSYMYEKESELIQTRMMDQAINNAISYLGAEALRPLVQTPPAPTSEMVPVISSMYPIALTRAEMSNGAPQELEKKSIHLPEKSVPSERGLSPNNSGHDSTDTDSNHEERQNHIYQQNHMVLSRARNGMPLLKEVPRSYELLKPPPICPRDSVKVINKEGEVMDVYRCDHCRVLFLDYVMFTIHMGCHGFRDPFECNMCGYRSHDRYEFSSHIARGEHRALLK
UniProt P30291, whole entry: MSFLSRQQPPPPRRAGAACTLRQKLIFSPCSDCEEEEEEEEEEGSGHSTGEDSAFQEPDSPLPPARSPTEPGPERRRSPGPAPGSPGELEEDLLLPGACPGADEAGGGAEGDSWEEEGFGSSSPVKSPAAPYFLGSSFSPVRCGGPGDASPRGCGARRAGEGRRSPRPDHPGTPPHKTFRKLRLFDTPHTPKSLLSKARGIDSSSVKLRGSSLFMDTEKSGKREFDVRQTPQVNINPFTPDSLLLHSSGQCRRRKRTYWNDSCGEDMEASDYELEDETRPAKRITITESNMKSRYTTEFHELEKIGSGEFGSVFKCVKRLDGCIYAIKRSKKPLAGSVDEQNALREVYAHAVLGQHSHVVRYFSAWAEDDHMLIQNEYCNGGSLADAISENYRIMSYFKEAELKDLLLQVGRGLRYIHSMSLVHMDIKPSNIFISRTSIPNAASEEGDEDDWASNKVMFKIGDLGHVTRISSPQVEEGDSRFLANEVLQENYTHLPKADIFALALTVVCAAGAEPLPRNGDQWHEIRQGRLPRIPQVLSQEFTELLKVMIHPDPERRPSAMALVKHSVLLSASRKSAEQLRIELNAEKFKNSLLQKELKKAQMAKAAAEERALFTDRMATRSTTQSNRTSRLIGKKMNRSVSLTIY
UniProt Q16531, whole entry partner: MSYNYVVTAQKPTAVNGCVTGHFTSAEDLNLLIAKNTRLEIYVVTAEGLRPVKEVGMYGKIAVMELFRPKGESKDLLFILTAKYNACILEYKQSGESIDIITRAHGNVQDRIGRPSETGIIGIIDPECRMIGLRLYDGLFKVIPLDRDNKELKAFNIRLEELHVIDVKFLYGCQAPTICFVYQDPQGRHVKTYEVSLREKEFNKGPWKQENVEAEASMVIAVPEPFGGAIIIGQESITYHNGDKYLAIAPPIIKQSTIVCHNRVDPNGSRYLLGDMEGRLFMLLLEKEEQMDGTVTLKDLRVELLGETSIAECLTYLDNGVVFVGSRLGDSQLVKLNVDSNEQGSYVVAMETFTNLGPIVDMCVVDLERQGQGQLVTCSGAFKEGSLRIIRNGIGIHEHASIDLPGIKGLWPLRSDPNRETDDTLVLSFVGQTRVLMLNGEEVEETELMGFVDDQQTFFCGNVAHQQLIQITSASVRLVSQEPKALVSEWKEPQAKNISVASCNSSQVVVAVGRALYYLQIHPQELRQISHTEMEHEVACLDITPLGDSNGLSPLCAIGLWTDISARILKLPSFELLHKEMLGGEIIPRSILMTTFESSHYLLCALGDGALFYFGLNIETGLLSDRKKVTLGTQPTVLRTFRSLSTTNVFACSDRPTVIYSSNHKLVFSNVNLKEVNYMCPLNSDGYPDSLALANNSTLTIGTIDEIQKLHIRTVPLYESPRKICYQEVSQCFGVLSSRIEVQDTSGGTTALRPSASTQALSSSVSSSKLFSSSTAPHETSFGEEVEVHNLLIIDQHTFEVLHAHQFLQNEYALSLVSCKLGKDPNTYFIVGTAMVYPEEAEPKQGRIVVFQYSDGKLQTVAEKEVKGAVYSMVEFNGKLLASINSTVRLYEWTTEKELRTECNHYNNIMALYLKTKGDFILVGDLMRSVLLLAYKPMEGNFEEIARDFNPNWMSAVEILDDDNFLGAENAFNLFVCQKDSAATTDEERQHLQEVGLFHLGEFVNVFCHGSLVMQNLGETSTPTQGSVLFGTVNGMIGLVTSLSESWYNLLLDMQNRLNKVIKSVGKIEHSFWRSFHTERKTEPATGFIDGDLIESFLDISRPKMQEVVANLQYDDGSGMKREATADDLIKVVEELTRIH

Molecules are shown by their SMILES.

Among the targets are CK1α (Homo sapiens, UniProt P48729+Q96SW2); GSPT1 (Homo sapiens, UniProt P15170+Q96SW2); IKZF1 (Homo sapiens, UniProt Q13422+Q96SW2); IKZF2 (Homo sapiens, UniProt Q96SW2+Q9UKS7); IKZF3 (Homo sapiens, UniProt Q96SW2+Q9UKT9); WEE1 (Homo sapiens, UniProt P30291+Q96SW2).
Holding throughout (assay): Western blot assay of substrate protein degradation in hPBMCs
What all share (details): 24 hours treatment, compounds at 50 nM and 500 nM (concentration behind the class not stated)

As to `O=C1CCC(N2C(=O)c3cccc(CN4CCC(N5CCN(c6cccc(Cl)c6Cl)CC5)C(F)(F)C4)c3C2=O)C(=O)N1` (stereo not drawn), the “substrate protein remaining % (CK1a)” value on CK1α is “A (0% ≤ substrate protein remaining % ≤ 80%)”. Moreover, the “substrate protein remaining % (GSPT1)” value on GSPT1 was “A (0% ≤ substrate protein remaining % ≤ 80%)”. In addition, the “substrate protein remaining % (IKZF 1)” value at IKZF1 is listed as “A (0% ≤ substrate protein remaining % ≤ 80%)”. Further, on IKZF2, the “substrate protein remaining % (IKZF2)” value was “B (80%< substrate protein remaining %≤ 100%)”. Moreover, on IKZF3, the “substrate protein remaining % (IKZF3)” value is recorded as “B (80%< substrate protein remaining %≤ 100%)”. Besides, at WEE1, the “substrate protein remaining % (WEE1)” value is given as “A (0% ≤ substrate protein remaining % ≤ 80%)”.
Take `O=C1CCN(N2C(=O)c3ccc(CN4CCC(N5CCN(c6cccc(Cl)c6Cl)CC5)C(F)(F)C4)cc3C2=O)C(=O)N1` (stereo not drawn): the “substrate protein remaining % (CK1a)” value on CK1α was “B (80%< substrate protein remaining %≤ 100%)”. The “substrate protein remaining % (GSPT1)” value at GSPT1 is “B (80%< substrate protein remaining %≤ 100%)”. At IKZF1, the “substrate protein remaining % (IKZF 1)” value was “B (80%< substrate protein remaining %≤ 100%)”. For the same compound, at IKZF2, the “substrate protein remaining % (IKZF2)” value was “A (0% ≤ substrate protein remaining % ≤ 80%)”. Besides, the “substrate protein remaining % (IKZF3)” value on IKZF3 is listed as “B (80%< substrate protein remaining %≤ 100%)”. Besides, the “substrate protein remaining % (WEE1)” value at WEE1 is listed as “B (80%< substrate protein remaining %≤ 100%)”.
In the case of `O=C1CCC(N2Cc3cc(C(=O)N4CCC(N5CCN(c6cccc(Cl)c6Cl)CC5)CC4)ccc3C2=O)C(=O)N1` (stereo not drawn), the “substrate protein remaining % (CK1a)” value at CK1α is given as “B (80%< substrate protein remaining %≤ 100%)”. Further, the “substrate protein remaining % (GSPT1)” value on GSPT1 is listed as “A (0% ≤ substrate protein remaining % ≤ 80%)”. In addition, at IKZF1, the “substrate protein remaining % (IKZF 1)” value is listed as “B (80%< substrate protein remaining %≤ 100%)”. Moreover, on IKZF2, the “substrate protein remaining % (IKZF2)” value was “B (80%< substrate protein remaining %≤ 100%)”. In addition, the “substrate protein remaining % (IKZF3)” value on IKZF3 is reported as “B (80%< substrate protein remaining %≤ 100%)”. Moreover, the “substrate protein remaining % (WEE1)” value at WEE1 is “B (80%< substrate protein remaining %≤ 100%)”.
`O=C1CCC(N2C(=O)c3ccc(CN4CCC(N5CCC(c6noc7cc(F)ccc67)CC5)C(F)(F)C4)cc3C2=O)C(=O)N1` (stereo not drawn): the “substrate protein remaining % (CK1a)” value on CK1α is recorded as “B (80%< substrate protein remaining %≤ 100%)”. The “substrate protein remaining % (GSPT1)” value at GSPT1 was “A (0% ≤ substrate protein remaining % ≤ 80%)”. The “substrate protein remaining % (IKZF 1)” value at IKZF1 is recorded as “B (80%< substrate protein remaining %≤ 100%)”. For the same compound, at IKZF2, the “substrate protein remaining % (IKZF2)” value is “B (80%< substrate protein remaining %≤ 100%)”. Moreover, the “substrate protein remaining % (IKZF3)” value at IKZF3 is given as “B (80%< substrate protein remaining %≤ 100%)”. Also, the “substrate protein remaining % (WEE1)” value at WEE1 was “B (80%< substrate protein remaining %≤ 100%)”.
With `O=C1CCC(N2Cc3cccc(C(=O)N4CCC(N5CCN(C(c6ccccc6)c6ccccn6)CC5)C(F)(F)C4)c3C2=O)C(=O)N1` (stereo not drawn), at CK1α, the “substrate protein remaining % (CK1a)” value is “B (80%< substrate protein remaining %≤ 100%)”. Further, on GSPT1, the “substrate protein remaining % (GSPT1)” value is given as “A (0% ≤ substrate protein remaining % ≤ 80%)”. Besides, the “substrate protein remaining % (IKZF 1)” value on IKZF1 is on record as “B (80%< substrate protein remaining %≤ 100%)”. Moreover, the “substrate protein remaining % (IKZF2)” value on IKZF2 is “B (80%< substrate protein remaining %≤ 100%)”. The “substrate protein remaining % (IKZF3)” value on IKZF3 is given as “A (0% ≤ substrate protein remaining % ≤ 80%)”. Further, on WEE1, the “substrate protein remaining % (WEE1)” value is recorded as “B (80%< substrate protein remaining %≤ 100%)”.
For the compound `CC1(C)CCC(CN2CCN(C3CCN(Cc4cccc5c4C(=O)N(C4CCC(=O)NC4=O)C5=O)CC3(F)F)CC2)=C(c2ccc(Cl)cc2)C1` (stereo not drawn), at CK1α, the “substrate protein remaining % (CK1a)” value is given as “B (80%< substrate protein remaining %≤ 100%)”. Further, the “substrate protein remaining % (GSPT1)” value at GSPT1 is recorded as “A (0% ≤ substrate protein remaining % ≤ 80%)”. For the same compound, the “substrate protein remaining % (IKZF 1)” value at IKZF1 is on record as “B (80%< substrate protein remaining %≤ 100%)”. Moreover, on IKZF2, the “substrate protein remaining % (IKZF2)” value was “A (0% ≤ substrate protein remaining % ≤ 80%)”. Also, at IKZF3, the “substrate protein remaining % (IKZF3)” value is “B (80%< substrate protein remaining %≤ 100%)”. Besides, the “substrate protein remaining % (WEE1)” value at WEE1 is “A (0% ≤ substrate protein remaining % ≤ 80%)”.
`O=C1CCC(N2C(=O)c3cccc(C(=O)N4CCC(N5CCN(C(c6ccccc6)c6ccccc6)CC5)C(F)(F)C4)c3C2=O)C(=O)N1` (stereo not drawn): the “substrate protein remaining % (CK1a)” value at CK1α was “B (80%< substrate protein remaining %≤ 100%)”. Moreover, the “substrate protein remaining % (GSPT1)” value on GSPT1 is on record as “A (0% ≤ substrate protein remaining % ≤ 80%)”. Also, at IKZF1, the “substrate protein remaining % (IKZF 1)” value was “B (80%< substrate protein remaining %≤ 100%)”. The “substrate protein remaining % (IKZF2)” value at IKZF2 is “A (0% ≤ substrate protein remaining % ≤ 80%)”. Further, the “substrate protein remaining % (IKZF3)” value at IKZF3 is reported as “A (0% ≤ substrate protein remaining % ≤ 80%)”. For the same compound, the “substrate protein remaining % (WEE1)” value at WEE1 is “B (80%< substrate protein remaining %≤ 100%)”.
In the case of `O=C1CCC(N2C(=O)c3ccc(C(=O)N4CCC(N5CCC(c6noc7cc(F)ccc67)CC5)C(F)(F)C4)cc3C2=O)C(=O)N1` (stereo not drawn), on CK1α, the “substrate protein remaining % (CK1a)” value is on record as “B (80%< substrate protein remaining %≤ 100%)”. For the same compound, the “substrate protein remaining % (GSPT1)” value on GSPT1 is on record as “A (0% ≤ substrate protein remaining % ≤ 80%)”. The “substrate protein remaining % (IKZF 1)” value on IKZF1 was “B (80%< substrate protein remaining %≤ 100%)”. Besides, the “substrate protein remaining % (IKZF2)” value on IKZF2 is on record as “A (0% ≤ substrate protein remaining % ≤ 80%)”. In addition, the “substrate protein remaining % (IKZF3)” value at IKZF3 is “B (80%< substrate protein remaining %≤ 100%)”. Also, the “substrate protein remaining % (WEE1)” value at WEE1 was “B (80%< substrate protein remaining %≤ 100%)”.
As for `CC1(C)CCC(CN2CCN(C3CCN(C(=O)c4ccc5c(c4)C(=O)N(C4CCC(=O)NC4=O)C5=O)CC3(F)F)CC2)=C(c2ccc(Cl)cc2)C1` (stereo not drawn), on CK1α, the “substrate protein remaining % (CK1a)” value is given as “B (80%< substrate protein remaining %≤ 100%)”. For the same compound, on GSPT1, the “substrate protein remaining % (GSPT1)” value is “B (80%< substrate protein remaining %≤ 100%)”. In addition, on IKZF1, the “substrate protein remaining % (IKZF 1)” value is reported as “B (80%< substrate protein remaining %≤ 100%)”. Also, the “substrate protein remaining % (IKZF2)” value at IKZF2 was “A (0% ≤ substrate protein remaining % ≤ 80%)”. For the same compound, the “substrate protein remaining % (IKZF3)” value on IKZF3 was “A (0% ≤ substrate protein remaining % ≤ 80%)”. The “substrate protein remaining % (WEE1)” value on WEE1 is listed as “B (80%< substrate protein remaining %≤ 100%)”.
For `O=C1CCC(N2C(=O)c3ccc(C(=O)N4CCC(N5CCN(C(c6ccccc6)c6ccccc6)CC5)CC4)cc3C2=O)C(=O)N1` (stereo not drawn), at CK1α, the “substrate protein remaining % (CK1a)” value is listed as “A (0% ≤ substrate protein remaining % ≤ 80%)”. Besides, the “substrate protein remaining % (GSPT1)” value on GSPT1 was “A (0% ≤ substrate protein remaining % ≤ 80%)”. At IKZF1, the “substrate protein remaining % (IKZF 1)” value was “A (0% ≤ substrate protein remaining % ≤ 80%)”. Also, on IKZF2, the “substrate protein remaining % (IKZF2)” value is on record as “A (0% ≤ substrate protein remaining % ≤ 80%)”. Moreover, the “substrate protein remaining % (IKZF3)” value on IKZF3 is given as “B (80%< substrate protein remaining %≤ 100%)”. In addition, at WEE1, the “substrate protein remaining % (WEE1)” value is “A (0% ≤ substrate protein remaining % ≤ 80%)”.
For `O=C1CCC(N2C(=O)c3cccc(CN4CCC(N5CCN(C(c6ccccc6)c6ccccn6)CC5)C(F)(F)C4)c3C2=O)C(=O)N1` (stereo not drawn), the “substrate protein remaining % (CK1a)” value at CK1α is reported as “A (0% ≤ substrate protein remaining % ≤ 80%)”. Further, at GSPT1, the “substrate protein remaining % (GSPT1)” value was “A (0% ≤ substrate protein remaining % ≤ 80%)”. Also, the “substrate protein remaining % (IKZF 1)” value at IKZF1 was “B (80%< substrate protein remaining %≤ 100%)”. The “substrate protein remaining % (IKZF2)” value at IKZF2 is given as “B (80%< substrate protein remaining %≤ 100%)”. Besides, the “substrate protein remaining % (IKZF3)” value at IKZF3 is listed as “B (80%< substrate protein remaining %≤ 100%)”. The “substrate protein remaining % (WEE1)” value at WEE1 is listed as “B (80%< substrate protein remaining %≤ 100%)”.
`O=C1CCN(N2C(=O)c3ccc(CN4CCC(N5CCN(c6cccc(Cl)c6Cl)CC5)CC4)cc3C2=O)C(=O)N1`: the “substrate protein remaining % (CK1a)” value at CK1α was “B (80%< substrate protein remaining %≤ 100%)”. In addition, at GSPT1, the “substrate protein remaining % (GSPT1)” value is “A (0% ≤ substrate protein remaining % ≤ 80%)”. The “substrate protein remaining % (IKZF 1)” value on IKZF1 is given as “B (80%< substrate protein remaining %≤ 100%)”. For the same compound, the “substrate protein remaining % (IKZF2)” value on IKZF2 is recorded as “B (80%< substrate protein remaining %≤ 100%)”. Moreover, the “substrate protein remaining % (IKZF3)” value on IKZF3 was “B (80%< substrate protein remaining %≤ 100%)”. Further, the “substrate protein remaining % (WEE1)” value at WEE1 was “A (0% ≤ substrate protein remaining % ≤ 80%)”.
For `O=C1CCC(N2C(=O)c3ccc(C(=O)N4CCC(N5CCN(C(c6ccccc6)c6ccccc6)CC5)C(F)(F)C4)cc3C2=O)C(=O)N1` (stereo not drawn), on CK1α, the “substrate protein remaining % (CK1a)” value was “B (80%< substrate protein remaining %≤ 100%)”. The “substrate protein remaining % (GSPT1)” value on GSPT1 was “A (0% ≤ substrate protein remaining % ≤ 80%)”. In addition, at IKZF1, the “substrate protein remaining % (IKZF 1)” value is reported as “B (80%< substrate protein remaining %≤ 100%)”. For the same compound, at IKZF2, the “substrate protein remaining % (IKZF2)” value is “A (0% ≤ substrate protein remaining % ≤ 80%)”. Besides, the “substrate protein remaining % (IKZF3)” value at IKZF3 is “A (0% ≤ substrate protein remaining % ≤ 80%)”. Also, the “substrate protein remaining % (WEE1)” value on WEE1 is reported as “B (80%< substrate protein remaining %≤ 100%)”.
Take `O=C1CCC(N2Cc3c(CN4CCC(N5CCN(c6cccc(Cl)c6Cl)CC5)C(F)(F)C4)cccc3C2=O)C(=O)N1` (stereo not drawn): the “substrate protein remaining % (CK1a)” value on CK1α is “B (80%< substrate protein remaining %≤ 100%)”. In addition, the “substrate protein remaining % (GSPT1)” value on GSPT1 is on record as “A (0% ≤ substrate protein remaining % ≤ 80%)”. The “substrate protein remaining % (IKZF 1)” value on IKZF1 is given as “B (80%< substrate protein remaining %≤ 100%)”. Further, the “substrate protein remaining % (IKZF2)” value at IKZF2 was “B (80%< substrate protein remaining %≤ 100%)”. Moreover, the “substrate protein remaining % (IKZF3)” value on IKZF3 is listed as “A (0% ≤ substrate protein remaining % ≤ 80%)”. Besides, the “substrate protein remaining % (WEE1)” value at WEE1 is “B (80%< substrate protein remaining %≤ 100%)”.
